pIC50: −log10 of the molar value.

Protein sequences, listed by entry. Tags and fused reporters are not part of them. Lines headed by an entry give the natural chain unless they say otherwise; changes in a name come on top.
UniProt P09619: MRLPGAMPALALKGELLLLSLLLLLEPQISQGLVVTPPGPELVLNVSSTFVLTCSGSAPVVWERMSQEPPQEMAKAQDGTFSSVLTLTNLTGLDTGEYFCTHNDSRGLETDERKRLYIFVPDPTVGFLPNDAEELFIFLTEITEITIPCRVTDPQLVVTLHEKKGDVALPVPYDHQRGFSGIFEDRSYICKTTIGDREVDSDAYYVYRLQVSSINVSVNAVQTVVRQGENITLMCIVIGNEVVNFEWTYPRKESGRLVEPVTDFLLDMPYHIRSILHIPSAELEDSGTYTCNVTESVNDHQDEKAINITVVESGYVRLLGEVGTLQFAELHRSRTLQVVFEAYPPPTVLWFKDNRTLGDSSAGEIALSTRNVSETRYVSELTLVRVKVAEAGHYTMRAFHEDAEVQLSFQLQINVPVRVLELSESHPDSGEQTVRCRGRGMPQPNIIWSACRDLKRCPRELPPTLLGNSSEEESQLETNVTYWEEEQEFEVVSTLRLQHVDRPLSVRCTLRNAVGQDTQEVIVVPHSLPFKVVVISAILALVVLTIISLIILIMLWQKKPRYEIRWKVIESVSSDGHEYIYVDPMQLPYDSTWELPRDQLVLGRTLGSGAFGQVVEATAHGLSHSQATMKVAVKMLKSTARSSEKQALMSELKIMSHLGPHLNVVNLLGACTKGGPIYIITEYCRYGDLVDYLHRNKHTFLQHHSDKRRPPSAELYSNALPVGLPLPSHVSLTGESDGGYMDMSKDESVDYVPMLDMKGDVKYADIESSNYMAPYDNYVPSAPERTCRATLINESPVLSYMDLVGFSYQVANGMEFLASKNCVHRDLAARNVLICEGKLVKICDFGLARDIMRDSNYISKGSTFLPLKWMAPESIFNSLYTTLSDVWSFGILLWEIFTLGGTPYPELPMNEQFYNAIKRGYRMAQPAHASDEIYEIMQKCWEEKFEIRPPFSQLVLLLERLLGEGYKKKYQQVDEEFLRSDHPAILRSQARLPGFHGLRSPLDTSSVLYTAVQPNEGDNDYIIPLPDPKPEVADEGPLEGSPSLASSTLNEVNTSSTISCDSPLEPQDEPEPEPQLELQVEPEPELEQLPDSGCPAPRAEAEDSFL

This assay addresses His6-TEV-PDGFRβ (557-1016) (Homo sapiens (Human), UniProt P09619). Nature of the assay: PDGFRβ HTRF Assay. Type of assay: biochemical. To be noted: read-out: PDGFR HTRF IC50. As for the experimental part: Instrumentation: a. Compound liquid handling: LabCyte Echo; b. Reagent liquid handling: Thermo Scientific Multidrop Combi; c. BMG PHERAStar multilabel plate reader.
Protein Reagent: His6-TEV-PDGFRβ Protein Prep prepared at Accelagen.
II. Methods and Procedures
Assay buffer stock solution, contains 50 mM Hepes, 10 mM MgCl2, 1 mM EGTA, and 0.01% Brij-35, 0.01% ovalbumin, 2 mM DTT at pH 7.5, in molecular biology grade water. Store at room temperature.
DTT, 2 M in molecular biology grade water, store at −20° C. in aliquots.
Ovalbumin, 10% or 100 mg/mL, prepare fresh on experimental day.
PDGFRβ, 116 μM (PDGFRb_08 Prep 02), produced at Accelagen. Store at −80° C. in aliquots.
TK-biotin peptide, […] in molecular biology grade water, store at −20° C. in aliquots.
ATP, 100 mM in molecular biology grade water, store at −20° C. in aliquots.
HTRF KinEASE-TK kit: Allow the contents of the Cisbio kit to warm up to room temperature before use. This kit contains HTRF detection buffer, TK-Antibody labeled with Eu^3+-cryptate, TK-substrate biotin and Streptavidin-XL665.
TK Substrate-Biotin, reconstitute 500 μg lyopholized with 574 μL molecular biology grade water to prepare a 500 μM stock; After use, aliquot the rest and store at −20° C.
TK Antibody-Cryptate, reconstitute lyophilized with 1 mL of molecular biology grade water (100× solution) then add 99 mL detection buffer to prepare a ready to use TK-antibody-cryptate solution; the concentration of the TK-antibody-cryptate reagent is not known. After use, aliquot the rest and store at −20° C.
Streptavidin-XL665, reconstitute 3 mg lyophilized with 3 mL molecular biology grade water to prepare a 1 mg/mL or 16.67 μM stock; MW=60 kDa; After use, aliquot the rest and store at −20° C.
Freshly Prepared Solutions:
Assay buffer. Dilute 5× Kinase buffer 5-fold with molecular biology grade water and add DTT to 2 mM and ovalbumin to 0.1 mg/mL (or 0.01%).
2× protein solution. Make a working solution of […] PDGFRβ in assay buffer. Keep on ice until use to maintain enzyme stability.
2× substrate solution. Make a working solution of 1.6 mM ATP and 1 μM TK-substrate biotin peptide in assay buffer.
3× quench/detection solution. Make a working solution of 0.1875 μM SA-XL665 and the TK-antibody cryptate diluted by 12 of total quench/detection volume in assay buffer.
Keep final streptavidin/biotin ratio at 1 to 8.
Example of 3× quench/detection solution preparation: 8 mL total volume.
TK antibody-cryptate in detection buffer—4000 μL […]
Step 3. […] Read the plate in PHERAstar (or similar instrument) on HTRF setting at excitation 337 nm—dual emission—665/620 nm ratio. […]
HTRF ratio values calculated by the instrument (Ratio is acceptor counts/donor counts*10,000) is exported from the plate reader and used in data analysis. […]
On the technique in general: Time-resolved FRET reads energy transfer from a long-lived donor to a nearby acceptor.
What is called pIC50 is −log10 of the IC50, conventionally taken in molar units. For `Cc1ncc(NC(=O)CN2CCC[C@H]2C)cc1NC(=O)c1cnn2cc(-c3cn(C)nc3C)sc12` [Example 440, (R)-2-(1,3-dimethyl-1H-pyrazol-4-yl)-N-(2-methyl-5-(2-(2-methylpyrrolidin-1-yl)acetamido)pyridin-3-yl)pyrazolo[5,1-b]thiazole-7-carboxamide], the pIC50 is 9.40.
The result for `Cc1ncc(NC(=O)CN2CCC[C@@H]2C)cc1NC(=O)c1cnn2cc(-c3cn(C)nc3C)sc12` [Example 438, (S)-2-(1,3-dimethyl-1H-pyrazol-4-yl)-N-(2-methyl-5-(2-(2-methylpyrrolidin-1-yl)acetamido)pyridin-3-yl)pyrazolo[5,1-b]thiazole-7-carboxamide] reads 9.40; that for `COc1ncccc1-c1cn2ncc(C(=O)Nc3cc(NC(=O)CN4CC(OC)C4)cnc3C)c2s1` [Example 400, N-(5-(2-(3-methoxyazetidin-1-yl)acetamido)-2-methylpyridin-3-yl)-2-(2-methoxypyridin-3-yl)pyrazolo[5,1-b]thiazole-7-carboxamide], 9.40; that for `COC1CCN(CC(=O)Nc2cnc(C)c(NC(=O)c3cnn4cc(-c5cn(C)nc5C)sc34)c2)C1` (stereo not shown) [Example 439, 2-(1,3-Dimethyl-1H-pyrazol-4-yl)-N-(5-(2-(3-methoxypyrrolidin-1-yl)acetamido)-2-methylpyridin-3-yl)pyrazolo[5,1-b]thiazole-7-carboxamide], 9.40.

The values are drawn from patent US20240109917A1 (ACTELION PHARMACEUTICALS LTD, priority 2020, published 2024).
